Reference: IntAct's records for PubMed 24805245

B1: DNA replication complex GINS protein SLD5 (Saccharomyces cerevisiae), Q03406 (parent)
chain: MDINIDDILAELDKETTAVDSTKITQGSSSTTHRDANTIVGSSLDLNDKTQIYVSPQQDFSDLMKSWKNERCSPELLPYPHQLMKRLLNRISMQSQLIENISMGFLDMQNASNANPPMPNESKLPLLCMETELERLKFVIRSYIRCRLSKIDKFSLYLRQLNEDENSLISLTDLLSKDEIKYHDTHSLIWLKLVNDSILKYMPEELQAINDTEGSVNMIDEPDWNKFVFIHVNGPPDGKWNEDPLLQENEFGKPCYTVTIPDLKEEVELTIGSIYVMRYEVIRDLLRDDKVALI
partner: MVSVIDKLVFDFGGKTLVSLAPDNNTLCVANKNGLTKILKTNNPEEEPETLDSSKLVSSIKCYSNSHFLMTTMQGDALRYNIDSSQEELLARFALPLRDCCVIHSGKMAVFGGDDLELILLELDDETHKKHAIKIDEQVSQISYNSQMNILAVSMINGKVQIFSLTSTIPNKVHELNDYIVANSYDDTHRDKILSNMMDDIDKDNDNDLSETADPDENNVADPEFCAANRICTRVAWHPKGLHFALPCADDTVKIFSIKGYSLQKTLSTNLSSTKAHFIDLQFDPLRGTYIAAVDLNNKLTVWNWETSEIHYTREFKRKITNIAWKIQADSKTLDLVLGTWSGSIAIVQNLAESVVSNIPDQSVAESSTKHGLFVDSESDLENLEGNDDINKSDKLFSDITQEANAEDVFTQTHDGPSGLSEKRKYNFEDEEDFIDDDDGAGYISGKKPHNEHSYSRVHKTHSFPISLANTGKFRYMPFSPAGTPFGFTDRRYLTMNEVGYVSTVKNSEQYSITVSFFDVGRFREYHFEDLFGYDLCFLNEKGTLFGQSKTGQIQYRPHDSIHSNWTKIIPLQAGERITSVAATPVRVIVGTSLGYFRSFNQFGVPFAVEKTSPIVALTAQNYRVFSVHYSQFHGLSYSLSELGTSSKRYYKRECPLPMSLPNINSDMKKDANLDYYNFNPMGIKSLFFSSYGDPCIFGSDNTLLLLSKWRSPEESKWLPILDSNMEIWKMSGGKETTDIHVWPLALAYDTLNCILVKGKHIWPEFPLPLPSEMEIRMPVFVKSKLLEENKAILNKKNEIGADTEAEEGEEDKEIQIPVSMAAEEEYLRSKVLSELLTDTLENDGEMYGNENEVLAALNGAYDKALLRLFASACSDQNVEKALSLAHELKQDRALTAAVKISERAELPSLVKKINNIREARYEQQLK
B2: DNA polymerase alpha catalytic subunit A (Saccharomyces cerevisiae), P13382 (parent)
chain: MSSKSEKLEKLRKLQAARNGTSIDDYEGDESDGDRIYDEIDEKEYRARKRQELLHDDFVVDDDGVGYVDRGVEEDWREVDNSSSDEDTGNLASKDSKRKKNIKREKDHQITDMLRTQHSKSTLLAHAKKSQKKSIPIDNFDDILGEFESGEVEKPNILLPSKLRENLNSSPTSEFKSSIKRVNGNDESSHDAGISKKVKIDPDSSTDKYLEIESSPLKLQSRKLRYANDVQDLLDDVENSPVVATKRQNVLQDTLLANPPSAQSLADEEDDEDSDEDIILKRRTMRSVTTTRRVNIDSRSNPSTSPFVTAPGTPIGIKGLTPSKSLQSNTDVATLAVNVKKEDVVDPETDTFQMFWLDYCEVNNTLILFGKVKLKDDNCVSAMVQINGLCRELFFLPREGKTPTDIHEEIIPLLMDKYGLDNIRAKPQKMKYSFELPDIPSESDYLKVLLPYQTPKSSRDTIPSDLSSDTFYHVFGGNSNIFESFVIQNRIMGPCWLDIKGADFNSIRNASHCAVEVSVDKPQNITPTTTKTMPNLRCLSLSIQTLMNPKENKQEIVSITLSAYRNISLDSPIPENIKPDDLCTLVRPPQSTSFPLGLAALAKQKLPGRVRLFNNEKAMLSCFCAMLKVEDPDVIIGHRLQNVYLDVLAHRMHDLNIPTFSSIGRRLRRTWPEKFGRGNSNMNHFFISDICSGRLICDIANEMGQSLTPKCQSWDLSEMYQVTCEKEHKPLDIDYQNPQYQNDVNSMTMALQENITNCMISAEVSYRIQLLTLTKQLTNLAGNAWAQTLGGTRAGRNEYILLHEFSRNGFIVPDKEGNRSRAQKQRQNEENADAPVNSKKAKYQGGLVFEPEKGLHKNYVLVMDFNSLYPSIIQEFNICFTTVDRNKEDIDELPSVPPSEVDQGVLPRLLANLVDRRREVKKVMKTETDPHKRVQCDIRQQALKLTANSMYGCLGYVNSRFYAKPLAMLVTNKGREILMNTRQLAESMNLLVVYGDTDSVMIDTGCDNYADAIKIGLGFKRLVNERYRLLEIDIDNVFKKLLLHAKKKYAALTVNLDKNGNGTTVLEVKGLDMKRREFCPLSRDVSIHVLNTILSDKDPEEALQEVYDYLEDIRIKVETNNIRIDKYKINMKLSKDPKAYPGGKNMPAVQVALRMRKAGRVVKAGSVITFVITKQDEIDNAADTPALSVAERAHALNEVMIKSNNLIPDPQYYLEKQIFAPVERLLERIDSFNVVRLSEALGLDSKKYFRREGGNNNGEDINNLQPLETTITDVERFKDTVTLELSCPSCDKRFPFGGIVSSNYYRVSYNGLQCKHCEQLFTPLQLTSQIEHSIRAHISLYYAGWLQCDDSTCGIVTRQVSVFGKRCLNDGCTGVMRYKYSDKQLYNQLLYFDSLFDCEKNKKQELKPIYLPDDLDYPKEQLTESSIKALTEQNRELMETGRSVVQKYLNDCGRRYVDMTSIFDFMLN
partner: B1 partner

Variants of: B1
Details: with ctf4_yeast CTF4, Q01454

Row | effect of a mutation on the interaction | Variant
1 | disrupting interaction strength | I8A
2 | disrupting interaction strength | L9A

Variants of: B2
Details: with ctf4_yeast CTF4, Q01454

Row | effect of a mutation on the interaction | Variant
3 | disrupting interaction strength | F140A
4 | disrupting interaction strength | L144A
5 | disrupting interaction strength | D142A
6 | disrupting interaction strength | F147A
7 | disrupting interaction strength | I143A
